Assay [1] concerns the target Kappa-type opioid receptor (Homo sapiens, UniProt P41145).
Assay [2] deals with Muscarinic acetylcholine receptor M3 (Homo sapiens, UniProt P20309).
Assay [3] deals with Muscarinic acetylcholine receptor M1 (Homo sapiens, UniProt P11229). The assay is classed as functional.
The target of assay [4] is Voltage-gated inwardly rectifying potassium channel KCNH2 (Homo sapiens, UniProt Q12809).
A further assay has as its target D(3) dopamine receptor (Homo sapiens, UniProt P35462).
The target of assay [5] is Alpha-2B adrenergic receptor (Homo sapiens, UniProt P18089).
The target of the next assay is Histamine H1 receptor (Homo sapiens, UniProt P35367).

By UniProt entry, the sequences of proteins in these tests, tags left out. Where a name states a change or a piece, a line headed by the entry shows the natural chain unless it says otherwise.
UniProt P41145: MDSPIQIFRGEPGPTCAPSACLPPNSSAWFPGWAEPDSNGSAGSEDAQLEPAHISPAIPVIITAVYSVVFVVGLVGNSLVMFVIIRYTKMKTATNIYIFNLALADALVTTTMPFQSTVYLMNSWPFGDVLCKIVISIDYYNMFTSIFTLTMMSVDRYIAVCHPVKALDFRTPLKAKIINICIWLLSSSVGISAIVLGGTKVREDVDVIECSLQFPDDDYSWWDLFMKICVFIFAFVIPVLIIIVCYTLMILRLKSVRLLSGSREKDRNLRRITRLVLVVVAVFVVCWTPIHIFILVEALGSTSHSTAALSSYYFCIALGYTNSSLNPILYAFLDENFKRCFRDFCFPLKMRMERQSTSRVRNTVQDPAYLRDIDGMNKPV
UniProt P20309, whole entry: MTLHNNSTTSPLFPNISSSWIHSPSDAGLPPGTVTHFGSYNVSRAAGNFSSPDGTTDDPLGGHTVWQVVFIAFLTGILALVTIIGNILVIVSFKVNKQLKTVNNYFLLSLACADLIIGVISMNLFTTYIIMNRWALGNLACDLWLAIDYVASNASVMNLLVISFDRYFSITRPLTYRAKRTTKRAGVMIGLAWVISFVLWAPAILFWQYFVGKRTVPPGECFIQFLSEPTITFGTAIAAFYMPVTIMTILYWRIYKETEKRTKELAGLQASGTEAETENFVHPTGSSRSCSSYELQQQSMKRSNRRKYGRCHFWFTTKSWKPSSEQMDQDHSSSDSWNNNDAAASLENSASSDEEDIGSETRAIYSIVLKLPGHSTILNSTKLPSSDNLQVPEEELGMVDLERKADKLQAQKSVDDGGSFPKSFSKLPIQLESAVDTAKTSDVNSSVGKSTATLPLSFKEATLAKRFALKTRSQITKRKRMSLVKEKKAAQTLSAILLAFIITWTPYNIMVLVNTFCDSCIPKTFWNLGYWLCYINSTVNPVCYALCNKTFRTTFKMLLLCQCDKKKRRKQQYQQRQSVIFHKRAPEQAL
UniProt P11229: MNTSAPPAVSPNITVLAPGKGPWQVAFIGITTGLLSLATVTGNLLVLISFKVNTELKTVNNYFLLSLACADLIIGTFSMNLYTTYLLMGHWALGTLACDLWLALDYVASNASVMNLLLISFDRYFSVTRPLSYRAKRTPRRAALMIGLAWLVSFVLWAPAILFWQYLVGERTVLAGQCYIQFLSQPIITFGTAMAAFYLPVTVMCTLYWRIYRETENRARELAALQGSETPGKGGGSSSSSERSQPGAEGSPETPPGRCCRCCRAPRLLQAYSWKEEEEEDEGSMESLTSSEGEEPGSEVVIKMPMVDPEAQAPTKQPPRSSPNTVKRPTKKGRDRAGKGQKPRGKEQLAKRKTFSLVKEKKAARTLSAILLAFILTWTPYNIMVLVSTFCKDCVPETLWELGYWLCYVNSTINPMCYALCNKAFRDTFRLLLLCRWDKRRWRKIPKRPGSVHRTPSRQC
UniProt Q12809: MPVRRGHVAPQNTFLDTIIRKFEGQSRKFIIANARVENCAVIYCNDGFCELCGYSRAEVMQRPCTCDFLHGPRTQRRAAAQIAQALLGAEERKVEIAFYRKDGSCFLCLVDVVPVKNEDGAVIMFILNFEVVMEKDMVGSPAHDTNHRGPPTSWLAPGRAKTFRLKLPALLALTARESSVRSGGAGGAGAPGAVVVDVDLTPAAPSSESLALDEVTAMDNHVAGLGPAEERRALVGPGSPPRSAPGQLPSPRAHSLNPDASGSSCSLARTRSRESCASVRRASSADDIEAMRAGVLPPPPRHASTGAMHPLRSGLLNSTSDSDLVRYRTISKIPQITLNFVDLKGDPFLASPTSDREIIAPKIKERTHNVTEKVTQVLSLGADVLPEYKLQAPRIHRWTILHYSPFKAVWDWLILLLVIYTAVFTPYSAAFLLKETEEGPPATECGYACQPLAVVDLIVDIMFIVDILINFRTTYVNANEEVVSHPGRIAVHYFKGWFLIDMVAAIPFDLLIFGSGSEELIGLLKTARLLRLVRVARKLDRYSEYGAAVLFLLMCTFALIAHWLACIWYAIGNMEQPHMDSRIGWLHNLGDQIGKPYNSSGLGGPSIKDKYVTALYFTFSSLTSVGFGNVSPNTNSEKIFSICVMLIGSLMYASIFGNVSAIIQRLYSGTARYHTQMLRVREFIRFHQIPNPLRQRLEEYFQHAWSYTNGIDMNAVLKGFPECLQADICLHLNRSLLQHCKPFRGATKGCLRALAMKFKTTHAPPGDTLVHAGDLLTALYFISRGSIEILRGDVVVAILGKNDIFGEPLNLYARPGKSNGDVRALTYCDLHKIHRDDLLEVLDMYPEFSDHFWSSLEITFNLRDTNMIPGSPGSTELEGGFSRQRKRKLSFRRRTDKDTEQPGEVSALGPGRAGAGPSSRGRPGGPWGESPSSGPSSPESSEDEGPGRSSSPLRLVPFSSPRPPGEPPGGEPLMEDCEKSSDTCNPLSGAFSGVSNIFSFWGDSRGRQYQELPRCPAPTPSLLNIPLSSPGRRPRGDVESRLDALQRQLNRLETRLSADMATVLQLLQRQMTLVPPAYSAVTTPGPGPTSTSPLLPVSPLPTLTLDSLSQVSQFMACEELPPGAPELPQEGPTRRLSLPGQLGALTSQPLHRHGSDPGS
UniProt P35462, whole entry: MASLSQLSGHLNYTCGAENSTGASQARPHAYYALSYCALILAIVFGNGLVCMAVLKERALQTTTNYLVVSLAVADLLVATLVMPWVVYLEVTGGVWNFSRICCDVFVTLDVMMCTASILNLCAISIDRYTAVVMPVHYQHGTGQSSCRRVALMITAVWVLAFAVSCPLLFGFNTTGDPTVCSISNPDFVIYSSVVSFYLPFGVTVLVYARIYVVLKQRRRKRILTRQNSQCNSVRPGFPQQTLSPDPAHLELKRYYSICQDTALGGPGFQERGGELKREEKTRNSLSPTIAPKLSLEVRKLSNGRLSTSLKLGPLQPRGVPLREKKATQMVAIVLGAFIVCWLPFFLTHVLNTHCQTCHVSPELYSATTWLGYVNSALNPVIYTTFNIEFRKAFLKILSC
UniProt P18089, whole entry: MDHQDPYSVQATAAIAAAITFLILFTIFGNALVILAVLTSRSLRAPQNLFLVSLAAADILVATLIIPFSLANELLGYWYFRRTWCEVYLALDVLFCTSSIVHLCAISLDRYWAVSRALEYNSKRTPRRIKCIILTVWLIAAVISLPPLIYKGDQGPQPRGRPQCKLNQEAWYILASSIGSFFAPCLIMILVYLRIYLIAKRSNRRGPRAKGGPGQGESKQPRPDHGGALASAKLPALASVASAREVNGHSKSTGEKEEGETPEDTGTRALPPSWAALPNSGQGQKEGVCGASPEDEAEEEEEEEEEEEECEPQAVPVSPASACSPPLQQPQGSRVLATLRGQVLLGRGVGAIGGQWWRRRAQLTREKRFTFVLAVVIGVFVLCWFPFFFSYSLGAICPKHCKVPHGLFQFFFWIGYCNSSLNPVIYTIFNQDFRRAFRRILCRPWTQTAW
UniProt P35367, whole entry: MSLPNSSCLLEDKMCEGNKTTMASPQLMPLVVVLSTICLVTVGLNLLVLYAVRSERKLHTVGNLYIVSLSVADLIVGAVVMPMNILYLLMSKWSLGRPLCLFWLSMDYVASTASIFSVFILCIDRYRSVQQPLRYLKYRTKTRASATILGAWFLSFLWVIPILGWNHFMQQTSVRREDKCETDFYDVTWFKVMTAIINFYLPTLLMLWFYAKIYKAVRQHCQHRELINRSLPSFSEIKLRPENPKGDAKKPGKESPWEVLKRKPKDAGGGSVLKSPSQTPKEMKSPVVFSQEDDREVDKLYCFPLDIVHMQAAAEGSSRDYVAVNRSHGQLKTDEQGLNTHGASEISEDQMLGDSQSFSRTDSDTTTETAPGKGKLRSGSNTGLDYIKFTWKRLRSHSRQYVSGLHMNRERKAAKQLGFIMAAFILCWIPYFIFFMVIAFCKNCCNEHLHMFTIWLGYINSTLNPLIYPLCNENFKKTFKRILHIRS

As usually defined, the AC50 is the concentration giving half of the maximal activity seen.
Also: assay procedure not described here.

In the case of `COc1ccc2c3c1O[C@H]1[C@@H](O)C=C[C@H]4[C@@H](C2)N(C)CC[C@@]341` [CODEINE], the half-maximal activity concentration (AC50) in assay [1] stood at 4.94 µM.

For the compound `CC(C)[N+]1(C)[C@@H]2CC[C@H]1C[C@@H](OC(=O)C(CO)c1ccccc1)C2` (some centres not stated) [IPRATROPIUM], in assay [2], the AC50 turned out to be 1.7 nM. In assay [3], `CN(CCCN1c2ccccc2CCc2ccccc21)CC(=O)c1ccc(Cl)cc1` [LOFEPRAMINE] returned an AC50 of 4.3 µM. That is a single-digit micromolar value. In assay [4], `C1CCC(C(CC2CCCCN2)C2CCCCC2)CC1` (configuration not stated) [PERHEXILINE] gave a half-maximal activity concentration (AC50) of 3.5 µM.

The compound `CC(C)(C)NCC(O)COc1cccc2c1SCCC2` (configuration not stated) [TERTATOLOL] registered a half-maximal activity concentration (AC50) on D(3) dopamine receptor greater than 30 µM. For `CN1CCN(CC/C=C2/c3ccccc3Sc3ccc(S(=O)(=O)N(C)C)cc32)CC1` [THIOTHIXENE], the concentration at half-maximal activity (AC50) in assay [5] worked out at 78 nM; at Histamine H1 receptor, 36 nM.

The values above are taken from ChEMBL document CHEMBL5291721, “A preclinical secondary pharmacology resource illuminates target-adverse drug reaction associations of marketed drugs” (Nat Commun, 2023).
